Target: opioid receptor subtype μ (Homo sapiens, UniProt P35372)
Details: 25 nM BODIPY-FL-GTPγS, 3 μM GDP, 90 minutes, in the presence of dynorphin A

The chains behind the UniProt entries cited, without tags or fusion partners.
UniProt P35372, whole entry: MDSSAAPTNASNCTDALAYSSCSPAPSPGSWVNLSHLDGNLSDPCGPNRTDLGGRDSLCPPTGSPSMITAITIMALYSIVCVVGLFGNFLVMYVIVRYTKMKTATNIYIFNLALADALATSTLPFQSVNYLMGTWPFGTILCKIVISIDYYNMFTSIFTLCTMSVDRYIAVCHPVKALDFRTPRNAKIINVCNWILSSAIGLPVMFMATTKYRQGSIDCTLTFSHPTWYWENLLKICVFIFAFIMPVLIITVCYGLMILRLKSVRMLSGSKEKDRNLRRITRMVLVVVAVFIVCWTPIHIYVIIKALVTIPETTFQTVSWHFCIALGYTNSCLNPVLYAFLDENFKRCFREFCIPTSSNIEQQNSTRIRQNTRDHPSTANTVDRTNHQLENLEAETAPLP

Q: How did the “increase in basal level fluorescence” value turn out when dynorphin A was run?
A: ~2.5 fold

Source: patent publication US8257965B2, “Arrays of biological membranes and methods and use thereof” (Corning Incorporated, priority 2001, dated 2012)
